pIC50: −log10 of the molar value.

Chains of the proteins cited; added tags and fusions are not shown. Lines headed by an entry give the natural chain unless they say otherwise; changes in a name come on top.
UniProt Q07343: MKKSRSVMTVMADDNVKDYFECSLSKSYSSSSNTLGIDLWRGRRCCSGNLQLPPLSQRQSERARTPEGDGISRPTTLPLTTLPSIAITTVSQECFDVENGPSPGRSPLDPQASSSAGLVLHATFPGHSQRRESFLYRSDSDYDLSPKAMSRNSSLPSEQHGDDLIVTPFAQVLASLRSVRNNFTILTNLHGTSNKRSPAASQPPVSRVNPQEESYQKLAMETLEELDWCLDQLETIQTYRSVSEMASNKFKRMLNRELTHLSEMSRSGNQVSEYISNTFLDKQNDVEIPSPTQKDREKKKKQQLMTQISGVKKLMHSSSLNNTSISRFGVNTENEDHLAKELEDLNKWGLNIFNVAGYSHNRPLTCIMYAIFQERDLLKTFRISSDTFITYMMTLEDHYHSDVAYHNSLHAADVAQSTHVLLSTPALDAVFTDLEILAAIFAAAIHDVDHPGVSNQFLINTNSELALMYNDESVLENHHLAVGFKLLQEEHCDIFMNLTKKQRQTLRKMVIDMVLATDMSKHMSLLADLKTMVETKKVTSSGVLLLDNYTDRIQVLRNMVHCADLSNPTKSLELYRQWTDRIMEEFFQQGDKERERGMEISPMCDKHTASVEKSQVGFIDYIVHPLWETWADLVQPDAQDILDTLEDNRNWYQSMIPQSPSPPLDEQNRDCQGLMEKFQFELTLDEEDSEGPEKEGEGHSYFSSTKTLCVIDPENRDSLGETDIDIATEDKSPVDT
UniProt Q08499: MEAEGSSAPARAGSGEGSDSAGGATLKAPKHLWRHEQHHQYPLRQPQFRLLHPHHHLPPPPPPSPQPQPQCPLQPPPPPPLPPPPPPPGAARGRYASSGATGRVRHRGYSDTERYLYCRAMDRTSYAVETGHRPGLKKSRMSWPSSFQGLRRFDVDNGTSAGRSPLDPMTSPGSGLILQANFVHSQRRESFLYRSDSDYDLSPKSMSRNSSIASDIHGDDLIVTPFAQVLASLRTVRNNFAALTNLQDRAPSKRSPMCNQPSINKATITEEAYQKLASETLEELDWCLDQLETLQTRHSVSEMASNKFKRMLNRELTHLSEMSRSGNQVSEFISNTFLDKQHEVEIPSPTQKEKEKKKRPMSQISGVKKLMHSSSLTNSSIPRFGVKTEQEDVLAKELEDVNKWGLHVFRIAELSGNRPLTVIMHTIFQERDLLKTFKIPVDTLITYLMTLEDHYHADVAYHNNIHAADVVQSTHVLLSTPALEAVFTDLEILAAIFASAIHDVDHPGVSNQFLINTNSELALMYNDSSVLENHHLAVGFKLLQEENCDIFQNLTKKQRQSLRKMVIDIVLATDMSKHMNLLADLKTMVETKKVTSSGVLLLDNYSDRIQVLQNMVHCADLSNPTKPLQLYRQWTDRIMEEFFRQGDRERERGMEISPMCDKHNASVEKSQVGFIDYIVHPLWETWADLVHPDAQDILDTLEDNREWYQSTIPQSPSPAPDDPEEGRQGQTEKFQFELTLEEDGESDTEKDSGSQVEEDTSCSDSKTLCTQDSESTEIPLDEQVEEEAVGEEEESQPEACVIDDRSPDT

For test [1], the target named is 3',5'-cyclic-AMP phosphodiesterase 4B (Homo sapiens, UniProt Q07343). Put plainly: Inhibition of PDE4B by luciferase-coupled assay.
Test [2] has as its target 3',5'-cyclic-AMP phosphodiesterase 4D (Homo sapiens, UniProt Q08499). Description: Inhibition of PDE4D by luciferase-coupled assay.

As for `CC1CCc2c(sc(NC(=O)c3ccccc3[N+](=O)[O-])c2C(N)=O)C1` (configuration not stated), the values for the pIC50 in test [1] and in test [2] were 7.30 and 6.30, respectively.
